According to ChEMBL document CHEMBL1150250, “New R/S-3,4-dihydro-2,2-dimethyl-6-halo-4-(phenylaminothiocarbonylamino)-2H-1-benzopyrans structurally related to (+/-)-cromakalim as tissue-selective pancreatic beta-cell K(ATP) channel openers” (Bioorg Med Chem, 2008):

Assay: Inhibition of glucose-induced insulin secretion in Wistar rat pancreatic beta islets assessed as residual insulin secretion at 1 uM relative to control
Format: functional
Summary of the method: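 Groups of 10 islets from adult fed Wistar rats were preincubated for 30 min at 37 °C in bicarbonate salt medium with 2.8 mM glucose and 0.5% albumin, gassed with O2/CO2. They were then incubated for 90 min in the same medium with 16.7 mM glucose plus drug. Insulin was measured by radioimmunoassay and expressed as % of drug-free 16.7 mM glucose control. Values are mean ± SEM (n).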

Structure (SMILES): CC(N/C(=N\C#N)Nc1ccncc1)C(C)(C)C (racemic) [PINACIDIL ANHYDROUS]
- Activity: 97.7%
